AlphaSeq binding of Ab-14 heavy chain variants to a spike HR2 peptide

Values reported by Li et al. 2023, doi:10.1038/s41467-023-39022-2 (FLAb copy).

Target: peptide PDVDLGDISGINAS, taken from heptad repeat 2 (HR2) of SARS-CoV-2 spike.

The variants keep the light chain, the linker and the frameworks of Ab-14 (scFv order VH, three GGGGS repeats, VL).
VH: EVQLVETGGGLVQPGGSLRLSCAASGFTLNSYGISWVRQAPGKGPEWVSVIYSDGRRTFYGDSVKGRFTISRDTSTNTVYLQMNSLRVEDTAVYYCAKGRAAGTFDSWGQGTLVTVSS
VL: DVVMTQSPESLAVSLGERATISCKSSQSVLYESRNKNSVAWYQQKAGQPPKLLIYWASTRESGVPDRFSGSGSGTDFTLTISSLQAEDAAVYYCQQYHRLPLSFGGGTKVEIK

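The variants were designed computationally from a first round of random CDR variants and then made and measured. Several design methods are mixed in this list. Affinity was read by AlphaSeq, a pooled yeast mating assay with surface-displayed partners. Pairs that bind mate more often; barcode pairs of the diploids are counted by sequencing. The ratio of observed to expected reads was calibrated, replicate by replicate, on BCL2-family standards whose Kd was known from biolayer interferometry. The assay was run in six technical replicates.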

The whole VH of each variant is written out.
Affinities are written as log10 Kd with Kd in nM; a lower number is a better binder.
The mean shown is taken over the replicates in which the pair was detected.
An entry "ND" has no value in the source: the pair was not observed among the diploids in that replicate. This suggests poor binding but is not conclusive.
The list is sorted by this average, lowest first, undetected variants last.
As a blank, each scFv also met three strains without target: over all heavy chain designs, 1% of these pairings were detected, typically at 2.08 and seldom below 0.84. For each scFv, signals with the empty controls are counted beside the result, with their mean in brackets.

VH,"log10 Kd, replicates","log10 Kd (nM), mean",control signals
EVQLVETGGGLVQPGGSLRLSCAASGFTLNDYGISWVRQAPGKGPEWVSVIYSDGRRTFYSDSVKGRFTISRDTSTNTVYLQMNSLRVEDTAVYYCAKGRTAGTFDAWGQGTLVTVSS,-0.27 / -0.79 / -0.29 / -0.46 / -1.13 / -0.78,-0.62,0 of 18
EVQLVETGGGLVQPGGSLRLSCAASGFDLNEYGISWVRQAPGKGPEWVSVIYADGRRTAYADSVKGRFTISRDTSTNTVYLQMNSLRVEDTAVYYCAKGNVAGTFIQWGQGTLVTVSS,-0.43 / -0.60 / -0.70 / -0.74 / -0.71 / -0.38,-0.59,0 of 18
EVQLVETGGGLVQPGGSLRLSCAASGFDLNEYGISWVRQAPGKGPEWVSVIYADGMRTAYVDSVKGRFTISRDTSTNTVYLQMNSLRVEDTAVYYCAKGNNAGTFDVWGQGTLVTVSS,0.19 / -0.97 / ND / -0.84 / -1.03 / 0.01,-0.53,0 of 18
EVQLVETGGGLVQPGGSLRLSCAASGFDLNSYGISWVRQAPGKGPEWVSVIYSDGQRTFYGDSVKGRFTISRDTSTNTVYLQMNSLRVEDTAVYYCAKGRLAGTFDSWGQGTLVTVSS,-0.21 / -0.60 / -0.73 / -0.34 / -0.53 / -0.46,-0.48,0 of 18
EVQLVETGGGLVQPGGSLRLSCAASGFELDEYGISWVRQAPGKGPEWVSVIYADGRRTFYQDSVKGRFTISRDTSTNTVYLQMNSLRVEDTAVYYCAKGNVAGTFDSWGQGTLVTVSS,-0.36 / -0.29 / -0.59 / -0.40 / -0.43 / -0.14,-0.37,0 of 18
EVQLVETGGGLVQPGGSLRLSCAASGFDLNEYGISWVRQAPGKGPEWVSVIYADGQRTAYTDSVKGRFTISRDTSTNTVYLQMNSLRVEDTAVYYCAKGETAGTFDVWGQGTLVTVSS,-0.36 / -0.02 / 0.37 / -0.15 / -0.63 / -0.35,-0.19,0 of 18
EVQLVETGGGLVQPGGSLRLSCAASGYDMEDYGISWVRQAPGKGPEWVSVIYADGSRAAYGDNFKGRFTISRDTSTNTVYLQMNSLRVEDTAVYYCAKGELAGTFDMWGQGTLVTVSS,ND / ND / ND / -0.33 / 0.01 / ND,-0.16,0 of 18
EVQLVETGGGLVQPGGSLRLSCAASGFDLNEYGISWVRQAPGKGPEWVSVIYADGRRTAYSDSVKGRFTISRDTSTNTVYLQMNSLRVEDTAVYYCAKGNQAGTFDLWGQGTLVTVSS,0.09 / 0.29 / 0.02 / -0.09 / -0.07 / 0.03,0.04,1 of 18 (1.84)
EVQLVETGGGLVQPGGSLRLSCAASGFKLNSYGISWVRQAPGKGPEWVSVIYSDGRRTFYHDSVKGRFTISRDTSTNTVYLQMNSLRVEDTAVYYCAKGKEAGTFDSWGQGTLVTVSS,0.02 / 0.58 / 1.05 / 0.34 / 0.32 / 1.00,0.55,0 of 18
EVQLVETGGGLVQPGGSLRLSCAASGFTLNSYGISWVRQAPGKGPEWVSVIYSDGRRTFYSDSVKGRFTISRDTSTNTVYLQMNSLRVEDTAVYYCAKGLLAGTFDSWGQGTLVTVSS,2.40 / 1.43 / 0.54 / 0.37 / 0.53 / 0.68,0.99,2 of 18 (2.19)
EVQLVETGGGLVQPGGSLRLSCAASGFTLESYGISWVRQAPGKGPEWVSVIYADGRRTFYGDKVKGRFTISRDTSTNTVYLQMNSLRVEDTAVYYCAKGRAAGTFDSWGQGTLVTVSS,1.11 / 1.18 / 1.21 / 1.31 / 0.83 / 0.83,1.08,1 of 18 (1.74)

Continued, with the values leading:

"log10 Kd, replicates","log10 Kd (nM), mean",control signals,VH
ND / 1.63 / 1.06 / 1.36 / 1.17 / 1.48,1.34,1 of 18 (1.78),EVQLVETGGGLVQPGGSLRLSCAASGFWLNEYGISWVRQAPGKGPEWVSVIYSDGRRTFYGDSVKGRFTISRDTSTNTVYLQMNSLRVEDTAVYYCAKGRAAGTFDSWGQGTLVTVSS
ND / ND / ND / ND / 1.67 / ND,1.67,0 of 18,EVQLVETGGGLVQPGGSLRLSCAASGYTLNQYGISWVRQAPGKGPEWVSVIYSDGRRPFYSDSVKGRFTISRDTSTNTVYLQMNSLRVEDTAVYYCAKGRAAGFFDSWGQGTLVTVSS
2.12 / 1.52 / 1.72 / 1.81 / 1.54 / 2.05,1.79,4 of 18 (2.74),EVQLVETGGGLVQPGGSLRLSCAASGFSLNSYGISWVRQAPGKGPEWVSVIYSDGRRTFYGDHVKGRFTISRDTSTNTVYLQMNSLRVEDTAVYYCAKGKAAGTFDVWGQGTLVTVSS
2.27 / 1.62 / 2.00 / 2.16 / 1.56 / 2.46,2.01,0 of 18,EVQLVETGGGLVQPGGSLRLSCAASGFELNEYGISWVRQAPGKGPEWVSVIYSDGRRTFYMDSVKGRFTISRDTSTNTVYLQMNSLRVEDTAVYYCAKGRFAGTFDSWGQGTLVTVSS
2.20 / ND / 1.42 / 1.74 / 2.29 / 3.07,2.14,0 of 18,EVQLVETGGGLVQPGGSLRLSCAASGFDVEKYGISWVRQAPGKGPEWVSVIYADGYRSAYASNVKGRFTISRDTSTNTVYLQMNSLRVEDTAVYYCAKGGEAGTFHVWGQGTLVTVSS
2.58 / ND / 2.19 / ND / 2.17 / 2.87,2.45,0 of 18,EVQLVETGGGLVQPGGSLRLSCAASGYDIQDYGISWVRQAPGKGPEWVSVIYADGQRAAYADEVKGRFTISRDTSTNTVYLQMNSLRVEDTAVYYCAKGNIGGIFSTWGQGTLVTVSS
ND / ND / ND / ND / ND / ND,ND,0 of 18,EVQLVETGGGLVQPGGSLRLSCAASMFSLNSYGISWVRQAPGKGPEWVSVIYSDGRRTFYIDSVKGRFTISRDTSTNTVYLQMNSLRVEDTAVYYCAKGNAAGTFDSWGQGTLVTVSS
ND / ND / ND / ND / ND / ND,ND,0 of 18,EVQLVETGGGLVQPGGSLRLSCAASGFTLNSYGISWVRQAPGKGPEWVSVIYSDGRRTFYGDSVKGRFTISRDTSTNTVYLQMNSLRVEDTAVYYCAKGRATGTDDSWGQGTLVTVSS
ND / ND / ND / ND / ND / ND,ND,0 of 18,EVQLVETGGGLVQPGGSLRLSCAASGFDLNEYGISWVRQAPGKGPEWVSVIYADGRRTAYTDSVKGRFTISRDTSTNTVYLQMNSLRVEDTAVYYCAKGEHAGIFDVWGQGTLVTVSS
ND / ND / ND / ND / ND / ND,ND,0 of 18,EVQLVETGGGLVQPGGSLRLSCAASGFTLNQYGISWVRQAPGKGPEWVSVIYSDGRRTFYSDSVKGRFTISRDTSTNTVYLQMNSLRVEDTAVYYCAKDRAAVFFDPWGQGTLVTVSS
ND / ND / ND / ND / ND / ND,ND,0 of 18,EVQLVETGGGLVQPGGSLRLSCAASGFTLNSYGISWVRQAPGKGPEWVSVIYADGRRTFYGDSVKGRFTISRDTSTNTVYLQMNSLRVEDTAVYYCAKTRAAGTNKSWGQGTLVTVSS
ND / ND / ND / ND / ND / ND,ND,0 of 18,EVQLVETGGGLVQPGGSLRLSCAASGFSLNQYGISWVRQAPGKGPEWVSVIYSDGRRTFYSDSVKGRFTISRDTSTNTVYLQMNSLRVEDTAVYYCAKGRAAGIFDSWGQGTLVTVSS

The opening 2 entries, copied out:

VH	log10 Kd, replicates	log10 Kd (nM), mean	control signals
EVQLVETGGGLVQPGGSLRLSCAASGFTLNDYGISWVRQAPGKGPEWVSVIYSDGRRTFYSDSVKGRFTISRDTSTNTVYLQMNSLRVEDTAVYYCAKGRTAGTFDAWGQGTLVTVSS	-0.27 / -0.79 / -0.29 / -0.46 / -1.13 / -0.78	-0.62	0 of 18
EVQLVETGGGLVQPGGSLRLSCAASGFDLNEYGISWVRQAPGKGPEWVSVIYADGRRTAYADSVKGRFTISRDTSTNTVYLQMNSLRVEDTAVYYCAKGNVAGTFIQWGQGTLVTVSS	-0.43 / -0.60 / -0.70 / -0.74 / -0.71 / -0.38	-0.59	0 of 18

Of ten entries with the parent sequence, four were seen in most replicates (averages 0.34 to 2.37), three in one and three in none, so single entries are noisy.
In the paper, a design with two or fewer of six values counts as a poor binder.
Values of this round are not directly comparable with the first-round values of the same sequences.